In PMC11745410:
pKd: −log10 of the molar value.

Assays:
[1] = molecular target: TAX9-loaded HLA-A*02:01/β2m; assay: NMR titration
[2] = molecular target: TAX9-loaded HLA-A*02:01/β2m; assay: SPR

high-fidelity TAPBPR variant TAPBPR^HiFi (S104F, K211L, R270Q), soluble (natural protein)
pKd [1]: 4.86
fold reduction of KD against TAPBPR^WT [2]: 10 fold
